Measurements from PMC5034536, “Molecular insights into substrate recognition and catalytic mechanism of the chaperone and FKBP peptidyl-prolyl isomerase SlyD” (BMC Biology, 2016).
No end group written: not given here.

Molecular target: T1, TtSlyDFL (full-length SlyD from Thermus thermophilus) (Thermus thermophilus, UniProt Q5SLE7)
T1 sequence (Q5SLE7 1-149): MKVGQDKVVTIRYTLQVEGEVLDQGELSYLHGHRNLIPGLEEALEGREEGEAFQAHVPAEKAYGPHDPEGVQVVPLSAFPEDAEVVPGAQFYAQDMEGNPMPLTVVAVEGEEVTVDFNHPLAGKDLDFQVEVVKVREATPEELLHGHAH
Test: ITC binding of peptides to full-length TtSlyD
Details: ITC two-site model, site 1 (IF domain) stoichiometry; 25 °C; 20 mM HEPES, 100 mM NaCl, pH 7.5

| Substance | N1 |
| --- | --- |
| TRYANPKMKPFIFGA-NH2 [S2-W23A] | 0.76 ± 0.03 |
| TRYWNAKMKPFIFGA-NH2 [S2-P25A] | 0.92 ± 0.01 |
| TRYWNPKMKEFIFGA-NH2 [S2-P29E] | 0.88 ± 0.02 |
